Laboratory results from patent publication US8211714B2, “Characterization of molecules” (Analiza, Inc., priority 2001, dated 2012).

Assay: Partitioning of human, bovine and porcine insulin in aqueous two-phase systems
Assay type: physicochemical
Experimental: Human recombinant insulin was purchased from ICN Biomedicals Inc. (Aurora, Ohio, USA), bovine and porcine insulins were purchased from Calbiochem Corporation (San Diego, Calif., USA) and used without further purification. […] Stock solutions of all insulins in 0.009M HCl were prepared and titrated with 0.01M NaOH to pH 6.0 with the final protein concentration of ca. 1.0 mg/ml. Stock solution of human insulin, stock solution of porcine insulin, and stock solution of bovine insulin were added to an aqueous two-phase system as described below.

Substance | Partition coefficient K-value, Dex-Ficoll-NaCl—NaPB (11.74 wt.% Dextran-69, 17.51 wt.% Ficoll-70, 0.15M NaCl, 0.01 M sodium phosphate buffer pH 7.4) | Partition coefficient K-value, Dex-PEG-NaClO4—NaPB (12.16 wt.% Dextran-69, 6.05 wt.% PEG-6000, 0.43M NaClO4, 0.01 M sodium phosphate buffer pH 7.4) | Partition coefficient K-value, Dex-PEG-NaSCN—NaPB (12.16 wt.% Dextran-69, 6.05 wt.% PEG-6000, 1.26M NaSCN, 0.01 M sodium phosphate buffer pH 7.4) | Partition coefficient K-value, Dex-Ficoll-NaSCN—NaPB (13.67 wt.% Dextran-69, 18.34 wt.% Ficoll-70, 0.33M NaSCN, 0.01 M sodium phosphate buffer pH 7.4) | Partition coefficient K-value, Dex-Ficoll-NaCl—NaPB (pH 7.4) | Partition coefficient K-value, Dex-Ficoll-NaSCN—NaPB (pH 7.4) | Partition coefficient K-value, Dex-PEG-NaClO4—NaPB (pH 7.4) | Partition coefficient K-value, Dex-PEG-NaSCN—NaPB (pH 7.4)
Bovine Insulin | 1.512 ± 0.012 | 0.702 ± 0.024 | 1.848 ± 0.021 | 0.968 ± 0.005 | – | – | – | –
Human Insulin | – | – | – | – | 1.262 ± 0.010 | 0.849 ± 0.014 | 0.776 ± 0.019 | 1.898 ± 0.022
